Here are results for 3 molecules from US5707798A, “Identification of ligands by selective amplification of cells transfected with receptors” (priority 1994, dated 1998).

Protein sequences, listed by entry. Tags and fused reporters are not part of them.
UniProt P08173, whole entry: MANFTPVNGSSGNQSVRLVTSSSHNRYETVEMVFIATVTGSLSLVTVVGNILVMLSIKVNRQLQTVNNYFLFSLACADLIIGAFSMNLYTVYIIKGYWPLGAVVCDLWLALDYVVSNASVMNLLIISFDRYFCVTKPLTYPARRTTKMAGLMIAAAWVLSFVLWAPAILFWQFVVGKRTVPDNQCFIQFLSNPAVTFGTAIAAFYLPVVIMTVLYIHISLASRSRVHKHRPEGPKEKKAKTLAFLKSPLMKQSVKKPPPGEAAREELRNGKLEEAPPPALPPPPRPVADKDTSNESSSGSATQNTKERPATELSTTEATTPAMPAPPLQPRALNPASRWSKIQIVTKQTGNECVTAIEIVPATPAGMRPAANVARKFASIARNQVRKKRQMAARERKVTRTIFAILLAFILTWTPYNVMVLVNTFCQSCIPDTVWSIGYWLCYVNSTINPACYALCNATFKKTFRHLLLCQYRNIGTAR
UniProt P18089, whole entry: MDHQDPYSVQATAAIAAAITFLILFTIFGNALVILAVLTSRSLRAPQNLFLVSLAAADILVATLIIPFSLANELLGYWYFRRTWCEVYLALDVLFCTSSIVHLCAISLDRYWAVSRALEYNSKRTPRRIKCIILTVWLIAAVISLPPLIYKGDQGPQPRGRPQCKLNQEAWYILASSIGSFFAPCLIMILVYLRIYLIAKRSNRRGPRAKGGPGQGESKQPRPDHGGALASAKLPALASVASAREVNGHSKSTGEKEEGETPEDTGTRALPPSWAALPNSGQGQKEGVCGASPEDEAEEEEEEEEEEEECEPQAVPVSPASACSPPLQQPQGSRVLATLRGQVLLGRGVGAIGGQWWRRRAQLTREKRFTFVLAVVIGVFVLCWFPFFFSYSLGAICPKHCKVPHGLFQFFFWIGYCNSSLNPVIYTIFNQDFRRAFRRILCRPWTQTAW

In one test the target is m4 muscarinic receptor (Homo sapiens, UniProt P08173). The conditions noted are these: m4 + Gq-i5, % of carbachol response (10 μM).
For test [1], the target named is alpha 2 C2 adrenergic receptor (Homo sapiens, UniProt P18089).

On to `C[N+](C)(C)CCOC(N)=O` [carbachol], for which the “% Max” value on m4 muscarinic receptor was 100%.

For orientation: EC50 means the concentration that produces a half-maximal response. Regarding `Nc1cc(Cl)c(N=C2NCCN2)c(Cl)c1` [p-NH2-Clonidine], the EC50 in test [1] stood at 400 nM.

In test [1], `Clc1cc(I)cc(Cl)c1N=C1NCCN1` [p-I-Clonidine] displayed an EC50 of 50 nM. This EC50 lies about 8-fold lower than the previous one.
